The record followed here is PubChem BioAssay (NCI).

Among the test systems are NCI-H23 lung; NCI-H226 lung; NCI-H322M lung; HOP-62 NSCLC; NCI-H460 lung; HOP-92 NSCLC; NCI-H522 lung; A549/ATCC NSCLC; 786-0 renal; COLO 205 colon.
Holding throughout (test): NCI-60 one-dose screen, 48 h (100 = growth as untreated, 0 = no growth, -100 = all killed)
What all share (conditions): 10 µM unless noted

Only a part is listed here, and it is no random draw.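 Cell lines were cultured in 96-well plates, exposed to a single compound concentration, and assessed for percent growth 48 hours later.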 Activity calls are given as the source filed them. The calls were made as follows: active = growth percent below 10; inactive = the rest.

`S=C(Nc1ccccc1)N(CCCl)CCCl`: the growth in the experiment with NCI-H23 lung was inactive: 102%; with NCI-H226 lung, inactive: 99.5%; with NCI-H322M lung it was inactive: 110%; in the experiment with HOP-62 NSCLC it was inactive: 110%; in the experiment on NCI-H460 lung, inactive: 102%; with HOP-92 NSCLC it was inactive: 61.7%. Also, the growth with NCI-H522 lung was inactive: 78%; in the experiment on A549/ATCC NSCLC, inactive: 91.7%; with 786-0 renal it was inactive: 102%; in the experiment with COLO 205 colon it was inactive: 123%.
For the molecule `O=C(Nc1cc([As](=O)(O)O)ccc1O)c1ccccc1`, the growth was inactive: 102% in the experiment with NCI-H23 lung; inactive: 90.6% with NCI-H226 lung; inactive: 132% in the experiment on NCI-H322M lung; inactive: 98.3% with HOP-62 NSCLC; inactive: 101% in the experiment with NCI-H460 lung; inactive: 96.3% with HOP-92 NSCLC. Also, the growth in the experiment on NCI-H522 lung is active: -25.3%; in the experiment with A549/ATCC NSCLC it was inactive: 109%; with 786-0 renal, inactive: 98.5%; in the experiment on COLO 205 colon it was inactive: 113%.
`ClCCNC(Cc1ccccc1)c1ccccc1` (stereo not given): the growth was inactive: 89.5% with NCI-H23 lung; inactive: 96% in the experiment with NCI-H226 lung; inactive: 102% in the experiment with NCI-H322M lung; inactive: 86.6% in the experiment with HOP-62 NSCLC; inactive: 103% in the experiment with NCI-H460 lung; inactive: 85.3% in the experiment with HOP-92 NSCLC. Further, the growth in the experiment with NCI-H522 lung was inactive: 85.1%; in the experiment on A549/ATCC NSCLC, inactive: 92%; with 786-0 renal it was inactive: 96.9%; in the experiment with COLO 205 colon it was inactive: 95.7%.
Take `CN(C)P(=O)(N(C)C)n1c(Nc2ccccc2)nnc1-c1ccccc1`: the growth in the experiment with NCI-H23 lung is inactive: 89.4%; in the experiment on NCI-H226 lung it was inactive: 87.9%; with NCI-H322M lung it was inactive: 95.2%; with HOP-62 NSCLC, inactive: 105%; in the experiment with NCI-H460 lung, inactive: 106%; in the experiment on HOP-92 NSCLC, inactive: 80.9%. Also, the growth in the experiment on NCI-H522 lung was inactive: 106%; in the experiment on A549/ATCC NSCLC, inactive: 87.1%; with 786-0 renal, inactive: 99.5%; with COLO 205 colon, inactive: 85.4%.
With `CC(C)OP(=S)(Cl)OC(C)C`, the growth in the experiment with NCI-H23 lung was inactive: 99.2%; with NCI-H226 lung, inactive: 106%; in the experiment with NCI-H322M lung, inactive: 92.6%; in the experiment with HOP-62 NSCLC it was inactive: 104%; with NCI-H460 lung, inactive: 107%; in the experiment with HOP-92 NSCLC it was inactive: 126%. Further, the growth is inactive: 90% in the experiment on NCI-H522 lung, inactive: 112% in the experiment with A549/ATCC NSCLC, inactive: 105% in the experiment with 786-0 renal and inactive: 107% in the experiment with COLO 205 colon.
With `C=CCOP(O)OCC=C`, the growth in the experiment with NCI-H23 lung was inactive: 105%; in the experiment with NCI-H226 lung, inactive: 105%; in the experiment with NCI-H322M lung it was inactive: 99.7%; in the experiment on HOP-62 NSCLC, inactive: 102%; in the experiment with NCI-H460 lung, inactive: 105%; with HOP-92 NSCLC it was inactive: 93.5%. The growth in the experiment with NCI-H522 lung is inactive: 91.7%; with A549/ATCC NSCLC, inactive: 101%; with 786-0 renal, inactive: 105%; with COLO 205 colon, inactive: 110%.
Take `CC(=O)NC(C)C(=O)N(CC(C)Cl)CC(C)Cl` (stereo not given): the growth is inactive: 105% in the experiment with NCI-H23 lung; inactive: 93.5% with NCI-H226 lung; inactive: 102% with NCI-H322M lung; inactive: 108% in the experiment with HOP-62 NSCLC; inactive: 107% in the experiment on NCI-H460 lung; inactive: 99.9% in the experiment on HOP-92 NSCLC. In addition, the growth is inactive: 84.6% in the experiment with NCI-H522 lung, inactive: 90.5% in the experiment with A549/ATCC NSCLC, inactive: 97.8% with 786-0 renal and inactive: 107% in the experiment with COLO 205 colon.
`Nc1cccc([As](=O)(O)c2ccccc2)c1`: the growth is inactive: 102% in the experiment with NCI-H23 lung; inactive: 107% in the experiment on NCI-H226 lung; inactive: 127% with NCI-H322M lung; inactive: 89% in the experiment on HOP-62 NSCLC; inactive: 106% with NCI-H460 lung; inactive: 109% with HOP-92 NSCLC. Moreover, the growth was inactive: 91.4% in the experiment on NCI-H522 lung, inactive: 105% in the experiment with A549/ATCC NSCLC, inactive: 97.1% with 786-0 renal and inactive: 116% in the experiment on COLO 205 colon.
For `O=C(O)COc1ccc([As](=O)(O)O)cc1[N+](=O)[O-]`, the growth with NCI-H23 lung is inactive: 115%; in the experiment on NCI-H226 lung, inactive: 107%; in the experiment on NCI-H322M lung, inactive: 121%; in the experiment with HOP-62 NSCLC it was inactive: 80.9%; with NCI-H460 lung it was inactive: 107%; with HOP-92 NSCLC it was inactive: 114%. In addition, the growth was inactive: 101% in the experiment on NCI-H522 lung, inactive: 113% in the experiment with A549/ATCC NSCLC, inactive: 79.2% in the experiment on 786-0 renal and inactive: 133% in the experiment with COLO 205 colon.
As to `CCCCCCC(C)OP(O)OC(C)CCCCCC` (stereo not given), the growth with NCI-H23 lung was inactive: 94.1%; in the experiment on NCI-H226 lung it was inactive: 93.2%; in the experiment with NCI-H322M lung, inactive: 102%; in the experiment with HOP-62 NSCLC, inactive: 113%; in the experiment on NCI-H460 lung, inactive: 127%; in the experiment with HOP-92 NSCLC, inactive: 110%. In addition, the growth in the experiment on NCI-H522 lung is inactive: 107%; in the experiment on A549/ATCC NSCLC it was inactive: 107%; in the experiment on 786-0 renal it was inactive: 100%; with COLO 205 colon it was inactive: 112%.
Turning to `O=C(CBr)c1ccc([N+](=O)[O-])cc1`, the growth with NCI-H23 lung is inactive: 104%; in the experiment on NCI-H226 lung it was inactive: 108%; with NCI-H322M lung, inactive: 87.5%; in the experiment with HOP-62 NSCLC, inactive: 102%; in the experiment with NCI-H460 lung, inactive: 114%; with HOP-92 NSCLC, inactive: 80.3%. Moreover, the growth in the experiment with NCI-H522 lung was inactive: 80.3%; in the experiment on A549/ATCC NSCLC, inactive: 107%; in the experiment on 786-0 renal, inactive: 110%; in the experiment on COLO 205 colon it was inactive: 110%.
With `COP(OC)c1ccc(C)cc1`, the growth in the experiment on NCI-H23 lung was inactive: 112%; with NCI-H226 lung, inactive: 111%; in the experiment on NCI-H322M lung, inactive: 120%; with HOP-62 NSCLC it was inactive: 113%; in the experiment on NCI-H460 lung it was inactive: 109%; with HOP-92 NSCLC, inactive: 93.4%. The growth in the experiment on NCI-H522 lung was inactive: 93.8%; with A549/ATCC NSCLC, inactive: 99.2%; in the experiment with 786-0 renal, inactive: 104%; with COLO 205 colon, inactive: 127%.
Consider `Cc1nn(Cc2ccccc2)c(C)c1C1(O)C[C@H](CC#N)OC1=O` (stereo not given in full), for which the growth with NCI-H23 lung was inactive: 133%; with NCI-H226 lung it was inactive: 110%; with NCI-H322M lung, inactive: 129%; in the experiment with HOP-62 NSCLC it was inactive: 104%; in the experiment on NCI-H460 lung it was inactive: 123%; in the experiment on HOP-92 NSCLC, inactive: 112%. The growth in the experiment on NCI-H522 lung was inactive: 109%; in the experiment with A549/ATCC NSCLC it was inactive: 115%; in the experiment with 786-0 renal, inactive: 116%; with COLO 205 colon, inactive: 116%.
As to `COC(=O)C1=C(C)O[P@](=O)(OC)CCC1c1ccccc1` (stereo not given in full), the growth in the experiment on NCI-H23 lung is inactive: 100%; in the experiment with NCI-H226 lung, inactive: 99.2%; in the experiment with NCI-H322M lung, inactive: 106%; with HOP-62 NSCLC, inactive: 96.7%; in the experiment with NCI-H460 lung, inactive: 105%; with HOP-92 NSCLC, inactive: 70.7%. The growth is inactive: 98% in the experiment with NCI-H522 lung, inactive: 101% in the experiment on A549/ATCC NSCLC, inactive: 98.1% in the experiment on 786-0 renal and inactive: 108% with COLO 205 colon.
